This assay has as its target PSMA (Homo sapiens, UniProt Q04609). Put plainly: hPSMA expression in RM1-PGLS tumors in vivo, PET imaging with 64Cu-PSMA-617 and blocking. Also on record: expressed in transfected cells; host or cells: RM1-PGLS murine prostate tumour cells implanted in C57BL/6J mice. The note with it: 50 nanomole 2-PMPA before 64Cu-PSMA-617; C57BL/6J mice. From the text:
PET signal is blocked with the PSMA inhibitor 2-PMPA (50 nanomole) in the right PET imaging scan.
C57BL/6J mice bearing RM1-PGLS tumors (50-135 mm^3) where randomized based on tumor volumes into 2 groups and administered compound intravenously. ^64Cu-PSMA-617 was synthesized according to conventional synthetic methods. (1) Mice in group 1 received 5.0 MBq of 64Cu-PSMA-617 (2 nmol, ^64Cu supplied by the University of Wisconsin in 0.1 M HCl) by intravenously tail-vein catheter. Mice in group 2 received 50 nmol of the PSMA inhibitor, 2-PMPA formulated in sterile PBS pH 7.4 followed by 5.0 MBq of ^64Cu-PSMA-617 (2 nmol). Mice were imaged at 90 min post-injection using Siemens Inveon PET/CT and images were reconstructed using ASIPro software. Region of interest (ROI) analyses on all images were performed using AMIDE with PET imaging results and analyses are shown in FIG. 16.

Chains of the proteins cited; added tags and fusions are not shown.
UniProt Q04609, whole entry: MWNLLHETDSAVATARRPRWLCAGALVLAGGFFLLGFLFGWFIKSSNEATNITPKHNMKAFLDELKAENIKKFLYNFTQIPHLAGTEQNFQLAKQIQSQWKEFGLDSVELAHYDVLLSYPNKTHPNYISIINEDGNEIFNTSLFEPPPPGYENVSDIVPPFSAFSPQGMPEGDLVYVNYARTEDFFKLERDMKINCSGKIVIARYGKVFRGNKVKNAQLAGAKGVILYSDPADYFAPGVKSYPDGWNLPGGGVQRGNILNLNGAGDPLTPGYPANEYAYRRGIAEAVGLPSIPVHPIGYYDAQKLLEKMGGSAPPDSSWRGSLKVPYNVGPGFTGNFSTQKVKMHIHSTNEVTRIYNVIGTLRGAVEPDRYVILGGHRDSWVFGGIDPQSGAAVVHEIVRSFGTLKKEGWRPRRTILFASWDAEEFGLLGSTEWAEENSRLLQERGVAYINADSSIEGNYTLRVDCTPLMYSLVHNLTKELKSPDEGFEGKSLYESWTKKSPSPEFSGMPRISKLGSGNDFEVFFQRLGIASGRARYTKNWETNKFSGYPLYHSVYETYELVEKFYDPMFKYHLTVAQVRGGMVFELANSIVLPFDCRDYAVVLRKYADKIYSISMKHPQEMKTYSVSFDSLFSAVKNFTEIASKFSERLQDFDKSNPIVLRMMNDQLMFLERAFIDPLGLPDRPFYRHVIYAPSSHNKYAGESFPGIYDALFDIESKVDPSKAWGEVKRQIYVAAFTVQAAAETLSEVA

Structures are written as SMILES.

`O=C(O)CCC(CP(=O)(O)O)C(=O)O` (stereo not shown) [2-PMPA]: the “PET signal of 64Cu-PSMA-617 in RM1-PGLS tumor” value is listed as “blocked”.

(Values after patent publication US20250090695A1, “IMMUNOSTIMULANT-CYTOTOXIC CONJUGATE COMPOSITION AND METHODS FOR CANCER TREATMENT” (The Research Foundation for the State University of New York, priority 2022, published 2025).)
